US20120058206A1, “ANTIALLERGIC MARINE BIOPOLYMERS” (MARINOMED BIOTECHNOLOGIE GMBH, priority 2008, published 2012)

Key:
[1] = intranasal, 300 μl (270 μg escin) in 0.12% wt iota-carrageenan solution, four times daily for five days
[2] = cited from earlier work
[3] = human patients, oral, repeatedly 50 mg escin twice daily

escin
maximum plasma concentration of escin [1]: about 90 ng/ml
time of peak plasma concentration of escin ([1]; after last application): 6 h
average plasma level of escin [2, 3]: 10 ng/mL
maximum plasma concentration of escin [2, 3]: 16 to 18 ng/mL
plasma levels of escin [2, 3]: lower than 20 ng/ml
peak levels of escin in blood plasma ([2]; volunteers, 50 mg tablets): 16-18 ng escin per 1 ml

Read-outs that look alike come from different tables or passages of the source.
